For this assay, the system named is rat aortic smooth muscle cells. Kind of assay: Mitogenic activity of blood coagulation factors on smooth muscle cells (3H-thymidine incorporation). The assay is classed as cell-based, Wistar rats. The note with it: FIG. 1, 10 nM coagulation factor, 24 h. Here is the method:
Primary smooth muscle cell cultures were prepared from the thoracic and abdominal aorta of 2-3 month old Wistar rats essentially using the procedure of Reilly, C. F. (1990) J. Cell Physiol. 142,342 (1990). After removing as much fat and adherent adventitia as possible with scissors and forceps, the tissue was finely minced, enzymatically dissociated with successive 37° C. incubations in HBSS containing collagenase (Sigma, 0.5 mg/ml for 15 min.), then elastase (Sigma, 0.125 mg/ml for 30 min.) and again collagenase (60 min.). […] Cells were grown in Dulbecco's Minimal Essential Medium (DMEM) containing 10% fetal bovine serum (FBS) with antibiotics. […]
The prepared rat smooth muscle cells were seeded in Falcon 24 multiwell plates (10^5 cells/well) and cultured at 37° C., in a 5% CO2 atmosphere in 1 ml DMEM containing 10% FBS. […] The cells were washed twice with cold phosphate buffered saline (PBS), treated twice with 5% trichloroacetic acid (TCA) for 5 min., dissolved with 0.25N NaOH (0.4 ml) incubated at 37° C. for 60 min., mixed with 5 ml Ecolume (ICN Biomedicals, Costa Mesa, Calif.), and their radioactivity determined in a scintillation counter. […] Smooth muscle cell mitogenic activity produced by exogenous agents is expressed as % relative mitogenic activity which is defined as: [formula] […]
In general terms: Uptake of a labelled nucleoside into DNA is a usual measure of proliferation.

Consider “human factor X: human coagulation factor X [reference compound]”, for which the “% relative mitogenic activity above control” value was “about 58%”.

The record behind these values is patent US5385885A, “Inhibition of smooth muscle cell proliferation by antistasin and tick anticoagulant peptide” (priority 1991, dated 1995).
